TrxR1 substrate: rat thioredoxin reductase 1 substrate activity | O89049 | purified TrxR1 substrate turnover, NADPH consumption readout | Potency, µM (series often up to 114 µM), without a hit: at the top dose activity change, negative = substrate turnover | 390,000 tested, 0.01% active; further: potency means the concentration at half of the fitted maximal effect; on the % scale 0 is the no-effect control and ±100 the full control effect; nearly all actives have a fitted effect of over 50% in size
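Rat TrxR1, dispensed at 90 nM, was prereduced with 400 uM NADPH (final) for 5 min at ~22 deg C, then incubated with compound 15 min before 400 uM selenite. A first-read NADPH fluorescence drop versus no-compound background flagged substrates.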
ClpP mod: qHTS Assay for Activators of ClpP. AID 651965, 2013. Potency, µM (doses to about 57.5 µM), for the others: top-dose activity change, negative = active. 340,000 tested, 1.9% active. ATP-dependent Clp protease proteolytic subunit (Bacillus subtilis (strain 168)), P80244. purified B. subtilis ClpP, FRET peptide cleavage, 20 min; active means well fitted falling curve with a large enough effect; inconclusive means small, poorly fitted or top-dose-only effect; inactive means no such curve, though single readings can be large or run the other way; further: potency means the concentration at half of the fitted maximal effect; the source files actives as falling curves though it sought activators and does not explain the sign; nearly all actives have a fitted effect of over 65% in size
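Purified B. subtilis ClpP, 10 microg/mL final in Tris/HCl pH8 with KCl, BSA, glycerol and Tween-20, cleaved an Abz/nitrotyrosine-quenched decapeptide. Fluorescence (ex 320, em 430) was read at 0 and 20 min at room temperature. Delta was normalized to 5.8 microM ADEP and DMSO/no-enzyme controls.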
miR-21 reporter: miR-21 reporter, rising signal | HeLa miR-21 FLuc reporter, luciferase, 48 h | Potency, µM (highest dose often 38.3 µM), for inactives: at the top dose reporter change, positive = more light | 340,000 tested, under 10 active | AID 2288; active = well fitted rising curve with a large enough effect; inconclusive = small, poorly fitted or top-dose-only effect; inactive = no such curve, though single readings can be large or run the other way;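 further: % of control where 0% means no effect; miR-21 action dims this reporter so a rising signal means less miR-21 action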
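Luminescence from a firefly luciferase reporter carrying a miR-21 binding site downstream, stably expressed under a CMV promoter in HeLa cells that make miR-21 endogenously, reports miRNA modulation after 48 h compound exposure up to approximately 40uM final.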
TrxR1 inh: rat TrxR1 inhibition; AID 588453; 390,000 tested, 1% active; recombinant rTrxR1, NADPH fluorescence consumption, selenite substrate; Potency, µM (top dose mostly 114 µM), for inactives: at the top dose activity change, negative = inhibition, actives largely listed as inhibitors; O89049; further: potency means the concentration at half of the fitted maximal effect; on the % scale 0 is the no-effect control and ±100 the full control effect; nearly all actives have a fitted effect of over 65% in size
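Rat TrxR1 (90 nM in the dispensed reagent) was pre-reduced with 400 uM NADPH for 5 min at room temperature, then incubated with compound for 15 min. After 400 uM selenite was added, NADPH fluorescence (Ex 340/Em 450 nm) was followed for 8 min.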
Apoferritin bind: candidate novel general anesthetic via apoferritin binding. apoferritin/1-aminoanthracene competitive binding, fluorescence. Potency, µM (highest dose often 77.5 µM), for the others: at the top dose activity change, negative = displacement, usual class: inhibitors. 350,000 tested, 0.074% active. AID 485281; further: potency means the concentration at half of the fitted maximal effect; on the % scale 0 is the no-effect control and ±100 the full control effect; nearly all actives have a fitted effect of over 20% in size
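10 uM apoferritin + 50% sat. 1-AMA, PBS; cpd 10 min RT; Ex380/Em535 endpoint; normalized to free probe vs complex; 4-param Hill fit; propofol titration as pos. ctrl.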
Active calls of the source: *; [ ] = dose if it differs, or a comment. In the library only some 2.5% were active in any assay of this set; here they are far more common. Unless noted, the call rests on the fitted dose curve; in most records, active means well fitted curve in the direction sought with a large enough effect; inconclusive means small, poorly fitted or top-dose-only effect, or another doubt; inactive means no such curve, though single readings can be large; an effect the other way counts as inactive or inconclusive.

Amino acid sequences for entries named in this document (tags omitted).
ATP-dependent Clp protease proteolytic subunit (Bacillus subtilis (strain 168)), P80244, UniProt P80244, whole entry, looked up: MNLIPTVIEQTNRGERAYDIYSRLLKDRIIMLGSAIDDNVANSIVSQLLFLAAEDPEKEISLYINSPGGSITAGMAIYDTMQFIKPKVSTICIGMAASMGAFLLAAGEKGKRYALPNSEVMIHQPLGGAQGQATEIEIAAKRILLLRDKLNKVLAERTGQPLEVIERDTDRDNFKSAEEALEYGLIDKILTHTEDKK

How did c1ccc(-c2nc3nc4ccccc4nc3n2Cc2ccco2)cc1 do in these assays?
TrxR1 substrate: 9%[57.1 µM]; ClpP mod: -24%; miR-21 reporter: -26%; TrxR1 inh: 32µM*; Apoferritin bind: inconclusive

Results for Cc1ccc(CSC2=Nc3ccccc3C3=NC(CCC(=O)NCCc4ccccc4)C(=O)N23)cc1 (stereo not drawn) ?
TrxR1 substrate: 7%[57.1 µM]; ClpP mod: -4%; miR-21 reporter: 4%; TrxR1 inh: 10%[57.1 µM]; Apoferritin bind: inconclusive

Results for O=S1(=O)C=C(Sc2nc3ccccc3s2)c2ccccc21 ?
TrxR1 substrate: 0%[57.1 µM]; ClpP mod: 2%; miR-21 reporter: inconclusive; TrxR1 inh: 2.5µM*; Apoferritin bind: -17%

How did COCCN(Cc1ccccc1)C(=S)Nc1ccc(OC(F)F)cc1 do in these assays?
TrxR1 substrate: 4%[57.1 µM]; miR-21 reporter: 1%; TrxR1 inh: 6%[57.1 µM]; Apoferritin bind: -7%

What do the screens show for `CCCN(Cc1ccccc1)C(=S)Nc1ccc(OC(F)F)cc1`?
TrxR1 substrate: -2%; ClpP mod: 10µM*; miR-21 reporter: -5%; TrxR1 inh: 1%; Apoferritin bind: -13%

Results for COC(=O)c1ccccc1NC(=O)c1cccc(COc2ccccc2Cl)c1 ?
TrxR1 substrate: 14%; ClpP mod: 25µM*; miR-21 reporter: -14%; TrxR1 inh: 15%; Apoferritin bind: -6%

Results for O=C(NC(=S)Nc1ccc(Cl)c(C(=O)O)c1)c1cccc(COc2ccccc2)c1 ?
TrxR1 substrate: -1%; ClpP mod: 1%; miR-21 reporter: -12%; TrxR1 inh: 71µM*; Apoferritin bind: inconclusive

How did O=C(NC(=S)Nc1ccc(Cl)c(C(=O)O)c1)c1ccc(OCc2ccccc2)cc1 do in these assays?
TrxR1 substrate: -2%; ClpP mod: 0%; miR-21 reporter: -6%; TrxR1 inh: -52%; Apoferritin bind: inconclusive

Results for Cc1cc(C(=O)Nc2sc3c(c2C#N)CCC(C)C3)cs1 (stereo not drawn) ?
TrxR1 substrate: 23%; ClpP mod: 25µM*; miR-21 reporter: -67%; TrxR1 inh: 29%; Apoferritin bind: -3%

What do the screens show for `COc1cccc(N2CCN(C(=O)c3ccc(=O)oc3)CC2C)c1` (stereo not drawn)?
TrxR1 substrate: 15%; ClpP mod: 28µM*; miR-21 reporter: 2%; TrxR1 inh: -18%; Apoferritin bind: -5%

Results for COC(=O)c1nn2c(C(F)(F)F)cc(-c3ccc(Br)o3)nc2c1Br ?
TrxR1 substrate: 10%; ClpP mod: 1%; miR-21 reporter: -1%; TrxR1 inh: 6.3µM*; Apoferritin bind: -5%

What do the screens show for `CCN1CCN(c2cc(-c3ccccc3)nc3cc(-c4cccc(F)c4)nn23)CC1`?
TrxR1 substrate: 23%[57.1 µM]; ClpP mod: 25µM*; miR-21 reporter: inconclusive; TrxR1 inh: 17%[57.1 µM]; Apoferritin bind: -9%

What do the screens show for `COC(=O)c1cc(OC)c(OC)cc1NC(=O)CCCCCN1C(=O)CCC1=O`?
TrxR1 substrate: 8%; ClpP mod: 28µM*; miR-21 reporter: -6%; TrxR1 inh: 9%[57.1 µM]; Apoferritin bind: -1%

How did COc1cc(Cl)c(C)cc1NC(=O)CCCN1C(=O)CCC1=O do in these assays?
TrxR1 substrate: -7%; ClpP mod: 1%; miR-21 reporter: -2%; TrxR1 inh: 3%; Apoferritin bind: -10%

How did COC(=O)c1sccc1NC(=O)CCC1CCCCC1 do in these assays?
TrxR1 substrate: 11%; ClpP mod: 0%; miR-21 reporter: -29%; TrxR1 inh: 25%; Apoferritin bind: -7%

Results for COC(=O)c1cc(OC)c(OC)cc1NC(=O)CCC1CCCC1 ?
TrxR1 substrate: 48%; ClpP mod: 32µM*; miR-21 reporter: -6%; TrxR1 inh: 28%[57.1 µM]; Apoferritin bind: 0%

How did Cc1nc(-c2ccc(Cl)cc2)sc1CCNC(=O)C(=O)Nc1ccc2c(c1)OCO2 do in these assays?
TrxR1 substrate: 9%[57.1 µM]; ClpP mod: 3%; miR-21 reporter: -33%; TrxR1 inh: 18%[57.1 µM]; Apoferritin bind: -12%

Results for Nc1c(-c2ccccc2)nc(Cl)nc1-c1ccccc1 ?
TrxR1 substrate: 209%[57.1 µM]; ClpP mod: 32µM*; miR-21 reporter: -6%; TrxR1 inh: -13%[57.1 µM]; Apoferritin bind: 363%

How did Cc1sc(N)nc1-c1ccccc1 do in these assays?
TrxR1 substrate: 10%[57.1 µM]; ClpP mod: -1%; miR-21 reporter: -2%; TrxR1 inh: 12%[57.1 µM]; Apoferritin bind: -16%

How did COc1cccc2c1C(=O)/C(=C\c1ccc(N(C)C)cc1)C2 do in these assays?
TrxR1 substrate: -4%; ClpP mod: 0%; TrxR1 inh: 7%

At a glance, part of the list above.
Results for Nc1c(-c2ccccc2)nc(Cl)nc1-c1ccccc1 ?
TrxR1 substrate: 209%[57.1 µM]; ClpP mod: 32µM*; miR-21 reporter: -6%; TrxR1 inh: -13%[57.1 µM]; Apoferritin bind: 363%

How did Cc1sc(N)nc1-c1ccccc1 do in these assays?
TrxR1 substrate: 10%[57.1 µM]; ClpP mod: -1%; miR-21 reporter: -2%; TrxR1 inh: 12%[57.1 µM]; Apoferritin bind: -16%

How did COc1cccc2c1C(=O)/C(=C\c1ccc(N(C)C)cc1)C2 do in these assays?
TrxR1 substrate: -4%; ClpP mod: 0%; TrxR1 inh: 7%

(list continues)
How did CCC(=O)NCCc1cc2cc(C)c(C)cc2[nH]c1=O do in these assays?
TrxR1 substrate: 2%; ClpP mod: 16µM*; miR-21 reporter: -8%; TrxR1 inh: -18%; Apoferritin bind: -6%

How did Cc1cc2cc(CCNC(=O)CC(C)C)c(=O)[nH]c2cc1C do in these assays?
miR-21 reporter: -3%; Apoferritin bind: 1%

How did CCc1ccccc1NC(=O)C(=O)NCC(c1cccnc1)N1CCc2ccccc21 (stereo not drawn) do in these assays?
TrxR1 substrate: 0%; ClpP mod: 1%; miR-21 reporter: -2%; TrxR1 inh: 7%; Apoferritin bind: -12%

What do the screens show for `Cc1ccc(-c2csc3ncn(-n4c(C)ccc4C)c(=O)c23)o1`?
TrxR1 substrate: -1%; ClpP mod: 0%; miR-21 reporter: inconclusive; TrxR1 inh: 32µM*; Apoferritin bind: -19%

What do the screens show for `Cc1nn(-c2ccccc2)c2[nH]c(=O)c(CNc3ccc(N4CCOCC4)cc3)cc12`?
TrxR1 substrate: 4%[57.1 µM]; ClpP mod: -4%; miR-21 reporter: 17%; TrxR1 inh: -24%; Apoferritin bind: -19%

How did Cc1nn(-c2ccc(Cl)cc2)c2[nH]c(=O)c(CNCc3ccc4c(c3)OCO4)cc12 do in these assays?
TrxR1 substrate: -2%; ClpP mod: -10%; miR-21 reporter: 1%; TrxR1 inh: 22µM*; Apoferritin bind: inconclusive

How did CC(C)(C)C(=O)Cn1c(=O)n(-c2ccccc2)c(=O)c2c3c(sc21)CCC3 do in these assays?
TrxR1 substrate: -12%; ClpP mod: -3%; miR-21 reporter: -2%; TrxR1 inh: -4%; Apoferritin bind: -5%

How did COc1ccc(-c2cc(C(=O)N3CCCCCC3)c3ccccc3n2)cc1 do in these assays?
TrxR1 substrate: 288%; ClpP mod: 6.3µM*; TrxR1 inh: -3%

Results for Cc1ccc(-c2cc(C(=O)N3CCCC3)c3ccccc3n2)s1 ?
TrxR1 substrate: 445%; ClpP mod: 11%; miR-21 reporter: -40%; TrxR1 inh: 35%; Apoferritin bind: 200%

How did O=C(c1cc(-c2ccc(Cl)s2)nc2ccccc12)N1CCCC1 do in these assays?
TrxR1 substrate: 82%; ClpP mod: 32µM*; TrxR1 inh: -28%
